Assay results from ChEMBL document CHEMBL5385866, “Switch type I to type II TRK inhibitors for combating clinical resistance induced by xDFG mutation for cancer therapy” (Eur J Med Chem, 2023).

Amino acid sequences for entries named in this document (tags omitted). A change or cut given only in a name is not applied to a line headed by its entry.
UniProt P07949, whole entry: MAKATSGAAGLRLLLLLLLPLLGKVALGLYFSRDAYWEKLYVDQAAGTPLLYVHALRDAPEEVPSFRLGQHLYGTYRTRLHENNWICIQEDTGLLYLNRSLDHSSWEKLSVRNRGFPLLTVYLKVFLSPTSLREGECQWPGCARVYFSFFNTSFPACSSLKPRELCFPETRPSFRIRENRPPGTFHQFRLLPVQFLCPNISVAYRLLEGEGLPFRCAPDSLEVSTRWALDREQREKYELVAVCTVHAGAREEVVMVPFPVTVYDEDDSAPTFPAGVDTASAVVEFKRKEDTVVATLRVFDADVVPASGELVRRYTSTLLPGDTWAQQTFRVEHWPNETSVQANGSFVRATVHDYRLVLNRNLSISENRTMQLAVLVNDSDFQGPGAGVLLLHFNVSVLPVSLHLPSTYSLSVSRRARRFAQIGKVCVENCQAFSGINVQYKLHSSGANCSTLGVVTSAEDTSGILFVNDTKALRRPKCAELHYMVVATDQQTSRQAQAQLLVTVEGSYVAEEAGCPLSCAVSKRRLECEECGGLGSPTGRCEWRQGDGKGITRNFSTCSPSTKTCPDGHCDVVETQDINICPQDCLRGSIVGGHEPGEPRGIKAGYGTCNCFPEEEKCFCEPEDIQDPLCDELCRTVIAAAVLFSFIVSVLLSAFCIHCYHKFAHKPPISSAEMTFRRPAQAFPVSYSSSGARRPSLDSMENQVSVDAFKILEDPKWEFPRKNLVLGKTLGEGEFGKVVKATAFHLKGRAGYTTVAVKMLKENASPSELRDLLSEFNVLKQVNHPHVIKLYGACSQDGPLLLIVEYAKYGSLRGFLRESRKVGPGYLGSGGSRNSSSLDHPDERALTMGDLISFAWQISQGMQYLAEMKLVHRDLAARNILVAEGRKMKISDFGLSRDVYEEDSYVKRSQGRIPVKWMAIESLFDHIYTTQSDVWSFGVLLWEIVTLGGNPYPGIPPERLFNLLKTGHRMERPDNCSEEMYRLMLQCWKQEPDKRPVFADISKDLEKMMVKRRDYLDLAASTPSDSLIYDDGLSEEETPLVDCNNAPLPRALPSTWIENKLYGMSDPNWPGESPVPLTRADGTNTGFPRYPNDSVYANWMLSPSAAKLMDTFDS
UniProt P35968, whole entry: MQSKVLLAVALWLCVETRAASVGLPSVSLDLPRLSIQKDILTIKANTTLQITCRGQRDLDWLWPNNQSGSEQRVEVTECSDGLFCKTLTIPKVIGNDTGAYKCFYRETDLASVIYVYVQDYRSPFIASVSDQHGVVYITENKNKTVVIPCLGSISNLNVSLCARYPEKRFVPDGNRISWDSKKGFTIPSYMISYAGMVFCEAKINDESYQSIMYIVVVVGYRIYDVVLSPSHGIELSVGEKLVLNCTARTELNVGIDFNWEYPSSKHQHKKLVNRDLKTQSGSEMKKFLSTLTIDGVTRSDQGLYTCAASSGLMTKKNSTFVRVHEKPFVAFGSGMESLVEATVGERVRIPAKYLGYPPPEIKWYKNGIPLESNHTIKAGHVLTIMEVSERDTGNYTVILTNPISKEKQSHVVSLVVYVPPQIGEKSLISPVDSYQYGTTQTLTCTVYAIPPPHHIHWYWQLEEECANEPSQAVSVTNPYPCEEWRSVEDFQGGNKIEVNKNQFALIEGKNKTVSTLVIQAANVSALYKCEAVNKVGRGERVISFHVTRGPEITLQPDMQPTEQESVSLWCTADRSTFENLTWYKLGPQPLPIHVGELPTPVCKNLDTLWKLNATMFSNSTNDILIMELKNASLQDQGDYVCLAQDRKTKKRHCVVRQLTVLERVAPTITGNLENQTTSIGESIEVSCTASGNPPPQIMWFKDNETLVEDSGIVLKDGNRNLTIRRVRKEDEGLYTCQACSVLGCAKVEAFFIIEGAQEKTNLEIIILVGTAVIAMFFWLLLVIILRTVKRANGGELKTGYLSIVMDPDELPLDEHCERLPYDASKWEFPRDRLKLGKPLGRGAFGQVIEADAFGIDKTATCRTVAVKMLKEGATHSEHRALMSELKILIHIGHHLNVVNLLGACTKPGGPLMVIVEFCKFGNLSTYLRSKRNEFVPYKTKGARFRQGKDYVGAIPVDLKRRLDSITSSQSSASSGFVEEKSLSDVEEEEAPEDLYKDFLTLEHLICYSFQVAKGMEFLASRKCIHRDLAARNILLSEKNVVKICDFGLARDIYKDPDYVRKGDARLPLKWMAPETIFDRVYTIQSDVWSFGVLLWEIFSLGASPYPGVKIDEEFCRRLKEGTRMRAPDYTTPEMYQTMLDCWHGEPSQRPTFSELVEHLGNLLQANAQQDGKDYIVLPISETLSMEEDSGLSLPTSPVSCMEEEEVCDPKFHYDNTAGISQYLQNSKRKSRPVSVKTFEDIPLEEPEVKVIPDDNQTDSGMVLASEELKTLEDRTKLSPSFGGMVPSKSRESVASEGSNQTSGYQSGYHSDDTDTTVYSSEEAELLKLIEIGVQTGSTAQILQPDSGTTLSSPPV
UniProt P07333, whole entry: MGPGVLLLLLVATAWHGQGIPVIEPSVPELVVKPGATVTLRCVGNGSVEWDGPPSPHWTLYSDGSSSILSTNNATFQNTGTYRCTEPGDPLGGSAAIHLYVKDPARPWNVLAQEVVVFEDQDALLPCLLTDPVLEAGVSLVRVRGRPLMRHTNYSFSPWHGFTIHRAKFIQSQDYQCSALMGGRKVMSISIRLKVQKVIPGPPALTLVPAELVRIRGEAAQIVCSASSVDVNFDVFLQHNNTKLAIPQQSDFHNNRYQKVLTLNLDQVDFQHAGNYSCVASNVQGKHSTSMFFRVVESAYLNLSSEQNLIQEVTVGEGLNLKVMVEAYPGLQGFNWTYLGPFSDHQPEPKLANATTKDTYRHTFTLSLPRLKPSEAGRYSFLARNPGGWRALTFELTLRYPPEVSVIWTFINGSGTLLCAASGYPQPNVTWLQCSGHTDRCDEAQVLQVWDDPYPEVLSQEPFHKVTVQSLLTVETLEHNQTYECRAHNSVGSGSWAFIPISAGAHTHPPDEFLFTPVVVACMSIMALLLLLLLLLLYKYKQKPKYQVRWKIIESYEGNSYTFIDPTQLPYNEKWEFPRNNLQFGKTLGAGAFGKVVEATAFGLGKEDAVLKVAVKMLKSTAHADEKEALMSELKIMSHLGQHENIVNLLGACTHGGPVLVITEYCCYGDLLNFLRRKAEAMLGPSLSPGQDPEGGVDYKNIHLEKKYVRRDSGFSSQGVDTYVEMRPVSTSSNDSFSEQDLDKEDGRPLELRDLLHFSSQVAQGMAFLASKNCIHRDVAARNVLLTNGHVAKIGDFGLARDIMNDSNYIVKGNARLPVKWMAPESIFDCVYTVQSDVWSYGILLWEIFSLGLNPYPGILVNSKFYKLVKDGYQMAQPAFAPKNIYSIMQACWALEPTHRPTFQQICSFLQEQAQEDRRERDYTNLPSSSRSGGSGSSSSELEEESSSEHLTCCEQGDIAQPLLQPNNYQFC
UniProt Q08345: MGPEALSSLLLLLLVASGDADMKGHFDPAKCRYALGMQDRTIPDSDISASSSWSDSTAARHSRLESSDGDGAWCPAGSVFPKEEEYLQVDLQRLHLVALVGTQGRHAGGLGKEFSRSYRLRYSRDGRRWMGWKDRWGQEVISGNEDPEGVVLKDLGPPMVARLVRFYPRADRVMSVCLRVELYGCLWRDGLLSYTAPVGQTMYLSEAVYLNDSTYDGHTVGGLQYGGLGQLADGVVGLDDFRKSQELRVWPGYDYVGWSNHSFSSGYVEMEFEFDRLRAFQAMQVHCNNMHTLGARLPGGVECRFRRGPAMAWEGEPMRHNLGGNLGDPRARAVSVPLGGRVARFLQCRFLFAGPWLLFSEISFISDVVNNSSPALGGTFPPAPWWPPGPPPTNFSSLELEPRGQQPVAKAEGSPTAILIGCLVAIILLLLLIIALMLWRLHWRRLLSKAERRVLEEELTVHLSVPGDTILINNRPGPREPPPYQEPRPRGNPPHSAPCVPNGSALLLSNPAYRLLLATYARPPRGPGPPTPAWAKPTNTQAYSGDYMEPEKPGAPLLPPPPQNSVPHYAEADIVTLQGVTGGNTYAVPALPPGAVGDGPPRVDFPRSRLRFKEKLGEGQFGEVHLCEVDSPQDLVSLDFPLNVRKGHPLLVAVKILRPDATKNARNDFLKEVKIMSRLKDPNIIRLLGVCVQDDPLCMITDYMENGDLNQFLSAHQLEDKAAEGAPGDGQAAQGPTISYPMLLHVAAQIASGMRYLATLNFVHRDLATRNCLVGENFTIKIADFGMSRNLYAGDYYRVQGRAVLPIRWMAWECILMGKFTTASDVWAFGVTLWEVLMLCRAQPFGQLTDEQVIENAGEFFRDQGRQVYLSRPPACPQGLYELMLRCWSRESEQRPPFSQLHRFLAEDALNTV
UniProt P36888, whole entry: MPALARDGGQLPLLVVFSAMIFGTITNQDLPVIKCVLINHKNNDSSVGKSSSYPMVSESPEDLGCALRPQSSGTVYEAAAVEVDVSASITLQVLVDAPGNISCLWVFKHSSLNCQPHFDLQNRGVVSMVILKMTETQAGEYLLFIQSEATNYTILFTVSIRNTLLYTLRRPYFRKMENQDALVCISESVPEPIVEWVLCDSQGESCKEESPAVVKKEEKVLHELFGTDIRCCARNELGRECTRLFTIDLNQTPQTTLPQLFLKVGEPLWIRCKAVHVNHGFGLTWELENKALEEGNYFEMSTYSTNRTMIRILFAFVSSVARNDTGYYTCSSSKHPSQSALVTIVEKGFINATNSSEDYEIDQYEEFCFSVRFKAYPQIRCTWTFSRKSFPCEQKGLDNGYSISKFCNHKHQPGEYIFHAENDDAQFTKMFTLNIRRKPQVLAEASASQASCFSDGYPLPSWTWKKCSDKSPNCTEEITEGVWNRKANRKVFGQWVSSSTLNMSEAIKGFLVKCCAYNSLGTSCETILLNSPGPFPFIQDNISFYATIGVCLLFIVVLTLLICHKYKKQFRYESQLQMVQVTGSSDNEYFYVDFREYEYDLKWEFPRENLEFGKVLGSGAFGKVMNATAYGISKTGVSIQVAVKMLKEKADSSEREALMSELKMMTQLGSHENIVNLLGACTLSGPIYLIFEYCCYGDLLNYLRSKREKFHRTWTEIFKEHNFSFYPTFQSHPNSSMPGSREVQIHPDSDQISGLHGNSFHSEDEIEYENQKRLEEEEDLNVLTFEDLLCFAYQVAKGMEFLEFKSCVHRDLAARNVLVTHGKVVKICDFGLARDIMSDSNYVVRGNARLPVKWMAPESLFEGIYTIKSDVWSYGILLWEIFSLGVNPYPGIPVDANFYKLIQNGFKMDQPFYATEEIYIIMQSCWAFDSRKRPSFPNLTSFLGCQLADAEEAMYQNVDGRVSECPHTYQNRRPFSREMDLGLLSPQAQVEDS
UniProt P10721, whole entry: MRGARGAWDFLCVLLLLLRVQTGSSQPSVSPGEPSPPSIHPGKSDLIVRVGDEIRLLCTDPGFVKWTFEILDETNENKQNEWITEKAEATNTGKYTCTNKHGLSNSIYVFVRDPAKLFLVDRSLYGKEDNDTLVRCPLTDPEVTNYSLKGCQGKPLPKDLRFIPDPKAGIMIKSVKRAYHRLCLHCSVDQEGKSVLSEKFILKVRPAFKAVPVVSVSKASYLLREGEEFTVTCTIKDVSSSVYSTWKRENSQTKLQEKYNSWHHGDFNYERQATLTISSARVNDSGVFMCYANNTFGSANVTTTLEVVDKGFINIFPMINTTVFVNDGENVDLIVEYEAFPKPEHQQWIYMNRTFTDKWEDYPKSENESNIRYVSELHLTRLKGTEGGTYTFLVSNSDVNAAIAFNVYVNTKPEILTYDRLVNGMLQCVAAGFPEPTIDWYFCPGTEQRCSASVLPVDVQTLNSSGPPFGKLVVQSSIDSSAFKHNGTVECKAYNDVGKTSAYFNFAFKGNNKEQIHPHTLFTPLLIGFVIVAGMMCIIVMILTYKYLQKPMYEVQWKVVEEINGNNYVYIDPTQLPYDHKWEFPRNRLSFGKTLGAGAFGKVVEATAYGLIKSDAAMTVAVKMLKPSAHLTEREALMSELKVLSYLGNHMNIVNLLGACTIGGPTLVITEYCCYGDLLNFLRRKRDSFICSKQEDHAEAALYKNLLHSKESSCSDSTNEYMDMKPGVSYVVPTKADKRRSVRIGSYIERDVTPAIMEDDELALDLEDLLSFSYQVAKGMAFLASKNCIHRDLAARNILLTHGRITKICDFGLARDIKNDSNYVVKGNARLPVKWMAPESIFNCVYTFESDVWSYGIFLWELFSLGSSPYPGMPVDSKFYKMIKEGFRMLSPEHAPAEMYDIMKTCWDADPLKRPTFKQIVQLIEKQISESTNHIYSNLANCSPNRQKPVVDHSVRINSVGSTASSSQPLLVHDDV

Legend:
[1] = molecular target: Proto-oncogene tyrosine-protein kinase receptor Ret (Homo sapiens, UniProt P07949); experiment: Inhibition of RET (unknown origin) at 1 uM relative to control
[2] = molecular target: Vascular endothelial growth factor receptor 2 (Homo sapiens, UniProt P35968); experiment: Inhibition of VEGFR2 (unknown origin) at 1 uM relative to control
[3] = molecular target: Macrophage colony-stimulating factor 1 receptor (Homo sapiens) (UniProt P07333); experiment: Inhibition of CSF1R (unknown origin) at 1 uM relative to control
[4] = molecular target: Epithelial discoidin domain-containing receptor 1 (Homo sapiens) (UniProt Q08345); experiment: Inhibition of DDR1 (unknown origin) at 1 uM relative to control
[5] = molecular target: Receptor-type tyrosine-protein kinase FLT3 (Homo sapiens, UniProt P36888); experiment: Inhibition of FLT3 (unknown origin) at 1 uM relative to control
[6] = molecular target: T1, Discoidin domain-containing receptor 2 (Homo sapiens) (UniProt Q16832); experiment: Inhibition of DDR2 (unknown origin) at 1 uM relative to control
T1 sequence (whole entry): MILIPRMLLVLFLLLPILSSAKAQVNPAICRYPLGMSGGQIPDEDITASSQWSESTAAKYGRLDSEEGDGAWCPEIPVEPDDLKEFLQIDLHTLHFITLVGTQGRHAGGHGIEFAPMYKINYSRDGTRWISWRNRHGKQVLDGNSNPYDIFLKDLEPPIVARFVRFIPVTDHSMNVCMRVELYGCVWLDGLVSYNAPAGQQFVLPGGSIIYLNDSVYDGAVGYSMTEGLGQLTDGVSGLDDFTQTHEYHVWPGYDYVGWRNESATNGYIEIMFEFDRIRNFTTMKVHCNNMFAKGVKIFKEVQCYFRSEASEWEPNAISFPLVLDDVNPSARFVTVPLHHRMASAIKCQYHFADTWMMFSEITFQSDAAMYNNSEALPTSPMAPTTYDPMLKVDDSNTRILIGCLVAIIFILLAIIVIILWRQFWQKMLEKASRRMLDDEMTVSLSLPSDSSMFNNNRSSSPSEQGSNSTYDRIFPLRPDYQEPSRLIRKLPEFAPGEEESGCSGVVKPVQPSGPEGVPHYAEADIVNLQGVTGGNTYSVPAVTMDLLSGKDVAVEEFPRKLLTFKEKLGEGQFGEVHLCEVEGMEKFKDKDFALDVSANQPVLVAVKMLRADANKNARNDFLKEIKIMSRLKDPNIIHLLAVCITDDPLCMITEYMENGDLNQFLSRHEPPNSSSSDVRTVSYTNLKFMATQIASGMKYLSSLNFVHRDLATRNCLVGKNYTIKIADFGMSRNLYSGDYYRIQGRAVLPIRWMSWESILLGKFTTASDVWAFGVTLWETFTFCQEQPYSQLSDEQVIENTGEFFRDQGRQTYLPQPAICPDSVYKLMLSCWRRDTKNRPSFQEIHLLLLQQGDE

[7] = molecular target: Mast/stem cell growth factor receptor Kit (Homo sapiens) (UniProt P10721); experiment: Inhibition of KIT (unknown origin) at 1 uM relative to control

CN1CCN(Cc2ccc(NC(=O)[C@@H]3CCN(c4ccc5ncc(-c6ccccn6)n5n4)C3)cc2C(F)(F)F)CC1
inhibition [1]: > 90% | inhibition [2]: > 90% | inhibition [3]: 70% | inhibition [4]: 70% | inhibition [5]: > 90% | inhibition [6]: 70% | inhibition [7]: 70%
